{
  "source": "patent US7968306B2",
  "about": "“Method for measuring activity of a specific fraction of albumin” (Wisconsin Alumni Research Foundation, priority 2002, dated 2011)",
  "key": {"porcine pancreatic PLA2": {"target": "T1, porcine pancreatic PLA2 (Sus scrofa, UniProt P00592)", "T1 sequence (P00592 23-146)": "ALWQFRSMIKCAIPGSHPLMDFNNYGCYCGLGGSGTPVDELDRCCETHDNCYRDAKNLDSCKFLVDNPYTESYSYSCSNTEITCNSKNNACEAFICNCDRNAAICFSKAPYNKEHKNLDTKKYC", "assay": "Continuous fluorescent assay of PLA2 (Bis-BODIPY FL C11-PC labeled DOPC-PG liposomes)", "conditions": "for effect on PLA2 activity at high protein level: 256 μg protein; for amount displaying similar inhibitory and stimulating effects on PLA2: 3 ml assay; for loss of activity after treating the protein in boiling water: boiling water for 5 min; for effect on PLA2 activity at low protein level: less than 30 μg protein in 3 ml assay; for effects of commercial human albumin on PLA2 activity: Sigma products, FIG. 43"}, "porcine pancreatic sPLA2": {"target": "T2, porcine pancreatic sPLA2 (Sus scrofa, UniProt P00592)", "T2 construct": "purchased Sigma P6534; host or cells: porcine pancreas", "T2 sequence (P00592 23-146)": "T1 sequence (P00592 23-146)", "assay": "SFA activity assay (sPLA2-induced albumin-liposome interaction, BODIPY-FA-labeled liposomes)", "assay_type": "biochemical", "conditions": "BODIPY-FA DOPC-PG liposomes, single cuvette"}, "[1]": {"target": "T3, recombinant human sPLA2-IIA (Homo sapiens, UniProt P14555)", "T3 construct": "gift: Dr. Wonhwa Cho, Department of Chemistry, University of Illinois at Chicago", "T3 sequence (P14555 21-144)": "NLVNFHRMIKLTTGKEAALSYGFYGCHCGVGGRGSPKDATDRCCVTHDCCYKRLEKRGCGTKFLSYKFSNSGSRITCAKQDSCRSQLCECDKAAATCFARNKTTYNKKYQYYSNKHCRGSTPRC", "assay": "sPLA2-IIA microplate fluorescent assay (BODIPY-PC labeled liposomes)", "assay_type": "biochemical", "conditions": "0.005 or 0.05 mg albumin in 0.3 ml microplate assay, FIG. 53"}, "[2]": {"conditions": "0.08 mg albumin in 3 ml assay mixture"}},
  "note": "Where “and” joins values, the source holds several entries; their conditions need not be identical. Equal values may be shown once.",
  "data": [
    {"substance": "Albumin: human serum albumin used in the lysoPC mixing experiment", "values": [
      {"measurement": "TFI", "setting": "porcine pancreatic PLA2; with lysoPC (9 nmol), 5 ng PLA2, 37° C., 2 min, truncated α1-AT 6 μg, intact α1-AT 20 μg, albumin 20 μg", "value": "46.01 and 35.91"},
      {"measurement": "% of control", "setting": "porcine pancreatic PLA2; with lysoPC (9 nmol), control LysoPC + PLA2, truncated α1-AT 6 μg, intact α1-AT 20 μg, albumin 20 μg", "value": "113.1% and 151.2%"},
      {"measurement": "TFI", "setting": "porcine pancreatic PLA2; without lysoPC, 5 ng PLA2, 37° C., 2 min, truncated α1-AT 6 μg, intact α1-AT 20 μg, albumin 20 μg", "value": "66.20 and 48.19"},
      {"measurement": "% of control", "setting": "porcine pancreatic PLA2; without lysoPC, control PLA2 (5 ng), truncated α1-AT 6 μg, intact α1-AT 20 μg, albumin 20 μg", "value": "139.6% and 198.9%"}
    ]},
    {"substance": "Protein-I: protein purified from human serum by G100, MonoQ and Vydac C4 columns; identified as albumin (SFA)", "values": [
      {"measurement": "effect on PLA2 activity at high protein level", "setting": "porcine pancreatic PLA2", "value": "produced negative ΔFI below the baseline"},
      {"measurement": "effect on PLA2 activity at high protein level", "setting": "porcine pancreatic PLA2; listed as protein-I", "value": "totally inhibited PLA2 activity"},
      {"measurement": "amount displaying similar inhibitory and stimulating effects on PLA2", "setting": "porcine pancreatic PLA2", "value": 128, "unit": "µg"},
      {"measurement": "effect on PLA2 activity at intermediate protein level", "setting": "porcine pancreatic PLA2; 60 to 100 μg protein", "value": "PLA2 inhibitory activity in the beginning of the reaction and then showed PLA2 stimulating activity"},
      {"measurement": "loss of activity after treating the protein in boiling water", "setting": "porcine pancreatic PLA2", "value": "lost all of its ΔFI increasing and decreasing effects"},
      {"measurement": "loss of activity after treating the protein in boiling water", "setting": "porcine pancreatic PLA2; listed as protein-I", "value": "lost all of its stimulating and inhibiting activities"},
      {"measurement": "effect on PLA2 activity at low protein level", "setting": "porcine pancreatic PLA2", "value": "increased ΔFI"},
      {"measurement": "effect on PLA2 activity at low protein level", "setting": "porcine pancreatic PLA2; listed as protein-I", "value": "stimulated PLA2"}
    ]},
    {"substance": "fatty acid-free albumin: human serum albumin, fatty acid free (A3782), Sigma Chemical Co., prepared from globulin-free product", "values": [
      {"measurement": "FI change (SFA activity) in presence of sPLA2", "setting": "porcine pancreatic sPLA2", "value": "increased ΔFI much higher than that generated by the same amount of globulin-free albumin"},
      {"measurement": "FI change (SFA activity) in presence of sPLA2", "setting": "porcine pancreatic sPLA2; listed as FAF-Alb", "value": "caused FI increase"},
      {"measurement": "effect on ΔFI in the sPLA2 assay", "setting": "porcine pancreatic PLA2; [2]", "value": "increased ΔFI"},
      {"measurement": "effect on ΔFI in the sPLA2 assay", "setting": "porcine pancreatic PLA2; 0.32 mg albumin in 3 ml assay mixture", "value": "reduced ΔFI in the first 60 sec to the level below the baseline, and then gradually increased ΔFI to above the baseline level"},
      {"measurement": "effect on ΔFI in the sPLA2 assay", "setting": "porcine pancreatic PLA2; 0.64 mg albumin in 3 ml assay mixture, 2-min reaction", "value": "reduced far below the baseline"},
      {"measurement": "TFI", "setting": "porcine pancreatic PLA2; 0.64 mg of each albumin in the PLA2 reaction mixture, 2 assays", "value": "-91.87±2.03"},
      {"measurement": "amount displaying similar inhibitory and stimulating effects on PLA2", "setting": "porcine pancreatic PLA2", "value": 320, "unit": "µg"},
      {"measurement": "effects of commercial human albumin on PLA2 activity", "setting": "porcine pancreatic PLA2", "value": "exhibited the stimulating and inhibitory effects on PLA2"},
      {"measurement": "effects on recombinant human sPLA2-IIA activity", "setting": "[1]", "value": "ΔFI-increasing and ΔFI-decreasing effects"}
    ]},
    {"substance": "globulin-free albumin: human serum albumin, globulin free (A8763), Sigma Chemical Co.", "values": [
      {"measurement": "FI change (SFA activity) in presence of sPLA2", "setting": "porcine pancreatic sPLA2", "value": "much lower than that of FA-free albumin"},
      {"measurement": "effect on ΔFI in the sPLA2 assay", "setting": "porcine pancreatic PLA2; [2]", "value": "increased ΔFI"},
      {"measurement": "effect on ΔFI in the PLA2 reaction", "setting": "porcine pancreatic PLA2; 0.32 mg to 0.64 mg albumin", "value": "much less inhibitory effect"},
      {"measurement": "effects of commercial human albumin on PLA2 activity", "setting": "porcine pancreatic PLA2", "value": "much less PLA2 inhibitory activity"}
    ]}
  ]
}
